Pemphigus Ab inh – inhibitors of pemphigus antibody binding to human desmoglein-3 | binding (percent of control), % at 10 µM | P32926 | hit rate 0.48% among 310,000 | DSG3-coupled beads, scFv-anti-DSG3-GFP binding, flow cytometry; active compounds read low;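 active = binding more than 3 SD below its plate's average and above zero; inconclusive = below that plate limit but binding exactly zero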;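 note: hits lower antibody fragment binding to DSG3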
eIF4H inh – inhibitors of RNA binding by human eIF4H; AID 2012; eIF4H fluorescence polarization binding assay; Q15056; inhibition, % at 35 µM; hit rate 0.94% among 290,000;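 note: calls also rest on retests at 20 µM and on dose response follow-up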
PABP polyA inh – PABP-poly(A) binding inhibition | P11940 | PABP-poly(A) RNA binding, fluorescence polarization | calls only at 35 µM | hit rate 1% among 290,000 | AID 2014;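 note: calls also rest on retests at 20 µM and on dose response follow-up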
UUG fidelity – modulators of yeast start codon fidelity, primary screen, whole organism, S. cerevisiae, single point, plate reader; S. cerevisiae UUG-firefly luciferase reporter, luminescence/redox ratio; activity score, % at 18.7 µM; 0.13% of 350,000 active; AID 602363, 2012;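 active = replicate mean at a twofold rise or more, about +100% in these data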;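 also: firefly luciferase made from a UUG start codon reports start codon fidelity; reporter light over untreated wells divided by growth signal over untreated wells; some hits fall short of that in this replicate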
PABP1 MLLE inh – inhibitors of microRNA-mediated deadenylation, human PABP1 MLLE binding; hit rate 0.36% among 360,000; inhibition, % at 20 µM; P11940; GST-MLLE / FITC-PAM2 fluorescence polarization; AID 588489; in the data active = inhibition above about 35%, passing the limit was not always enough
Hits are given with their value; - = inactive; ? = inconclusive; . = no result given; + = active, no number. Rows were chosen to be rich in hits. Some 1.5% of all compounds tested hit in one or more screens of this group. Unless noted, the rule behind the calls is not given here.

SMILES	Pemphigus Ab inh	eIF4H inh	PABP polyA inh	UUG fidelity	PABP1 MLLE inh
N#CC(c1nc2ccccc2nc1N1CCCC1)S(=O)(=O)c1ccccc1 (configuration not stated)	-	?	?	-	-
COc1ccc(S(=O)(=O)C(C#N)c2nc3ccccc3nc2N2CCCCC2)cc1 (configuration not stated)	-	97.2	+	-	-
Cc1ccc(S(=O)(=O)C(C#N)c2nc3ccccc3nc2N2CCN(C)CC2)cc1C (configuration not stated)	-	121.5	+	-	-
Cc1cccc(S(=O)(=O)C(C#N)c2nc3ccccc3nc2N2CCCC2)c1 (configuration not stated)	-	122.4	+	-	-
Cc1noc(C)c1S(=O)(=O)N(C)C[C@H]1OCCCC[C@@H](C)Oc2ccc(NS(=O)(=O)c3ccc(F)cc3)cc2C(=O)N([C@@H](C)CO)C[C@H]1C	.	.	.	-	.
C[C@@H]1CN([C@@H](C)CO)S(=O)(=O)c2ccc(C#CCC3CCCC3)cc2O[C@H]1CN(C)C	.	.	.	-	.
COc1ccc2nc(N3CCCC3)c(C#N)cc2c1	-	?	?	-	-
COc1ccc2nc(N3CCCCC3)c(C#N)cc2c1	-	-	-	-	40.5
C[C@H](CO)N1C[C@H](C)[C@@H](CN(C)C(=O)Nc2ccccc2)OCCCC[C@H](C)Oc2ccc(NC(=O)CCC(F)(F)F)cc2C1=O	.	.	.	-	.
CS(=O)(=O)N1N=C(c2ccco2)CC1c1ccccc1 (configuration not stated)	-	-	-	-	-
CS(=O)(=O)N1N=C(c2ccco2)CC1c1ccco1 (configuration not stated)	-	78.2	+	-	-
Nn1c(SCc2ccccc2F)nnc1-c1ccccn1	-	4.1	+	-	-
Nn1c(SCc2ccc(F)cc2)nnc1-c1ccccn1	-	-	-	-	-
Cn1nnc2c(C(N)=O)ncn2c1=O	.	-	-	-	39.3
C[C@H](CO)N1C[C@H](C)[C@H](CN(C)C(=O)c2ccccc2)OCCCC[C@H](C)Oc2ccc(NC(=O)Nc3ccccc3)cc2C1=O	.	.	.	-	.
CCCCCCc1cc2cc(C(=O)NC)c(=N)oc2cc1O	-	-	-	-	-
CCCCCCc1cc2cc(C(N)=O)c(=N)oc2cc1O	.	96.2	+	.	.
C[C@@H]1CN([C@H](C)CO)C(=O)c2cc(NS(C)(=O)=O)ccc2O[C@H]1CN(C)C(=O)Nc1ccc2c(c1)OCO2	.	.	.	-	.
NNc1nc2c(-c3ccc(Cl)cc3)nnn2c2ccccc12	68.2	?	-	-	-
CNC(=O)c1nnsc1S(=O)c1ccc(Cl)cc1 (configuration not stated)	-	-	-	.	-
CCCNC(=O)c1nnsc1S(=O)c1ccc(Cl)cc1 (configuration not stated)	-	-	-	.	37.5
S=C(NCc1cccs1)Nc1cccc(Cl)c1	-	-	-	.	-
O=C(NCc1cccs1)Nc1cccc(Cl)c1	9.4	.	.	-	-
Cc1ccc(S(=O)(=O)Nc2ccc3c(c2)C(=O)N([C@@H](C)CO)C[C@@H](C)[C@H](CN(C)Cc2ccc(C(=O)O)cc2)OCCCC[C@H](C)O3)cc1	.	.	.	-	.
C/C(=N\NC(=O)CSCc1ccc(Cl)cc1)c1ccc2c(c1)OCCO2	.	-	-	-	-
SMILES	Pemphigus Ab inh	eIF4H inh	PABP polyA inh	UUG fidelity	PABP1 MLLE inh
C/C(=N\NC(=O)COc1cccc(Cl)c1)c1ccc2c(c1)OCCO2	.	active	-	.	-
O=C(C[C@@H]1C[C@@H]2c3cc(NC(=O)Nc4ccccc4)ccc3O[C@@H]2[C@H](CO)O1)NC1CCCCC1	.	.	.	-	.
O=C(Nc1cccc(-c2cn3c(n2)SCC3)c1)c1ccc2c(c1)OCO2	-	-	-	-	-
O=C(Nc1ccc(-c2cn3c(n2)SCC3)cc1)c1ccc2c(c1)OCO2	82.8	-	-	-	-
Cc1ccc(NC(=O)c2sc3nc4c(c(-c5ccco5)c3c2N)CCC4)cc1	-	82.0	+	-	-
Nc1c(C(=O)Nc2ccccc2)sc2nc3c(c(-c4ccco4)c12)CCC3	-	84.3	+	-	-
CCNC(=O)C[C@@H]1CC[C@H]2[C@@H](COC[C@H](O)CN2Cc2ccccc2F)O1	.	.	.	-	.
Cc1ccc(S(=O)(=O)N2C[C@H]3n4c(=O)ccc(=O)n4C[C@H](OC(=O)Nc4c(C)noc4C)[C@@]3(O)C2)cc1	91.7	.	.	-	-
Cc1ccc(S(=O)(=O)N2C[C@H]3n4c(=O)ccc(=O)n4C[C@H](OC(=O)NC4CC4)[C@@]3(O)C2)cc1	.	.	.	-	-
C[C@@H]1CN([C@@H](C)CO)C(=O)Cc2cc(NC(=O)c3ccncc3)ccc2O[C@H]1CN(C)S(=O)(=O)c1ccc(Cl)cc1	.	.	.	-	.
O=C(OCc1cc(=O)n2c(n1)sc1ccccc12)c1ccc2c(=O)n3c(nc2c1)CCC3	-	74.9	+	-	-
CC(=O)c1c(C)[nH]c(C(=O)COC(=O)c2ccc3c(=O)n4c(nc3c2)CCC4)c1C	-	-	-	.	-
Cc1ccc2c(CC(=O)OCc3cc(=O)n4c(n3)sc3ccccc34)coc2c1	-	70.1	-	-	-
CC(C)[C@H](NC(=O)Cc1ccccc1)C(=O)OCc1cc(=O)n2c(n1)sc1ccccc12	-	75.4	+	.	-
Cc1ccc(COC(=O)Cc2coc3cc(O)ccc23)cc1	-	-	-	-	-
Cn1cccc1/C=C1\Cc2ccccc2C1=O	-	-	-	-	-
Cn1cccc1/C=C1\CC(C(C)(C)C)C/C(=C\c2cccn2C)C1=O (configuration not stated)	-	51.2	+	.	-
C[C@H](O)C#Cc1ccc([C@@H]2[C@@H](CO)N3CCCCN(C(=O)c4ccncc4)C[C@H]23)cc1	.	.	.	-	.
Cc1c2ccccc2nc2c(F)c(NC(C)C)c(F)c(F)c12	-	82.3	+	.	-
Cc1ccc(C(=O)Nc2nc3ccccc3c(=O)s2)cc1	-	-	-	-	46.0
CSc1nc2ccc3nc(NC(=O)c4ccc(C)cc4)sc3c2s1	-	-	-	-	-
Cc1noc(C)c1NC(=O)Nc1cccc2c1O[C@H](CN(C)Cc1ccc(C(=O)O)cc1)[C@H](C)CN([C@@H](C)CO)C2=O	.	.	.	-	.
CCCN1CN(Cc2ccccc2)CNC1=S	-	-	-	-	-
COCCCN1CN(Cc2ccccc2)CNC1=S	-	0.6	-	.	-
C/C=C/c1ccc([C@@H]2[C@@H](CO)N(C(=O)NCCC)[C@H]2CNC(=O)C2CCC2)cc1	.	.	.	-	.
SMILES	Pemphigus Ab inh	eIF4H inh	PABP polyA inh	UUG fidelity	PABP1 MLLE inh
CC(=O)O/N=C/c1c(C)c(C=O)n2ccccc12	-	-	+	-	-
CC(=O)O/N=C/c1c(Cl)n(C)c2ccccc12	-	-	-	.	-
Cn1c(C(=O)OCC(=O)NCc2cccs2)cc2sccc21	40.2	-	-	.	-
COCCn1cnnc1SCC(=O)Nc1ccccc1C(=O)Nc1ccc2c(c1)OCO2	.	5.6	-	-	-
Cn1c(COc2ccccc2)nnc1SCC(=O)Nc1ccc2c(c1)OCO2	-	-	-	-	-
C[C@H](CO)N1C[C@H](C)[C@H](CN(C)S(=O)(=O)c2cn(C)cn2)Oc2ccc(NC(=O)Nc3ccccc3)cc2C1=O	.	.	.	-	.
